Results from the NIST ThermoML archive (doi:10.1021/je060117o).

Conditions: Liquid, Other PVT measurement

CCl [chloromethane]
specific volume [m3/kg]
Conditions | 298 K | 323 K | 348 K | 373 K | 423 K | 473 K | 523 K | 573 K
10000 kPa | 0.001066 | 0.001131 | 0.001201 | 0.001301 | 0.00173 | 0.004468 | 0.006442 | 0.007881
20000 kPa | 0.001047 | 0.0011 | 0.001159 | 0.001233 | 0.001466 | 0.001858 | 0.002586 | 0.003417
30000 kPa | 0.00103 | 0.001079 | 0.001131 | 0.001187 | 0.00135 | 0.00156 | 0.0019 | 0.002317
40000 kPa | 0.001012 | 0.001059 | 0.001103 | 0.001155 | 0.001279 | 0.00144 | 0.001652 | 0.001928
50000 kPa | 0.0009994 | 0.001043 | 0.001083 | 0.001128 | 0.001234 | 0.001361 | 0.001504 | 0.001697
75000 kPa | 0.0009752 | 0.00101 | 0.001043 | 0.001083 | 0.00116 | 0.00125 | 0.001344 | 0.001457
100000 kPa | 0.0009545 | 0.0009852 | 0.001016 | 0.001048 | 0.001114 | 0.001183 | 0.001261 | 0.001347
125000 kPa | 0.0009395 | 0.0009622 | 0.0009892 | 0.001019 | 0.001075 | 0.001135 | 0.001199 | 0.001277
150000 kPa | 0.0009237 | 0.0009449 | 0.0009696 | 0.0009963 | 0.001048 | 0.0011 | 0.001153 | 0.001221
175000 kPa | 0.0009102 | 0.0009316 | 0.0009533 | 0.0009771 | 0.00102 | 0.001069 | 0.001117 | 0.001178
200000 kPa | 0.0009001 | 0.0009178 | 0.000937 | 0.000959 | 0.001 | 0.001043 | 0.001088 | 0.001145
225000 kPa | 0.0008905 | 0.0009076 | 0.0009251 | 0.0009441 | 0.0009818 | 0.001021 | 0.001066 | 0.001115
250000 kPa | 0.000881 | 0.0008978 | 0.0009147 | 0.0009328 | 0.0009678 | 0.001004 | 0.001043 | 0.001086
275000 kPa | 0.0008704 | 0.000887 | 0.000903 | 0.00092 | 0.0009519 | 0.0009865 | 0.00102 | 0.001063
300000 kPa | 0.0008631 | 0.0008777 | 0.0008942 | 0.0009104 | 0.0009409 | 0.0009729 | 0.001004 | 0.001047
325000 kPa | 0.0008544 | 0.0008694 | 0.0008839 | 0.0008995 | 0.0009295 | 0.0009587 | 0.000989 | 0.001028
350000 kPa | 0.0008484 | 0.0008622 | 0.0008766 | 0.0008906 | 0.0009167 | 0.000947 | 0.0009755 | 0.001012
375000 kPa | 0.0008408 | 0.0008542 | 0.000867 | 0.000881 | 0.0009064 | 0.0009357 | 0.0009626 | 0.0009929
400000 kPa | 0.0008366 | 0.0008474 | 0.00086 | 0.0008736 | 0.0008963 | 0.0009239 | 0.0009483 | 0.0009763
